Results published in patent US8840891 (RSR, dated 2014).
Like-named read-outs stand apart in the source and are kept apart here.

Tests used:
Assay in all cases: cell-based or functional assay
[1] = target: human TSHR, wild type, expressed on CHO cells (human) (UniProt P16473)
[2] = target: TSHR with His105 mutated to Alanine expressed on CHO cells (human) (UniProt P16473)
[3] = target: wild type human TSHR (thyrotropin receptor) expressed on CHO cells (human) (UniProt P16473)
[4] = target: TSHR with Lys209 mutated to Alanine expressed on CHO cells (human) (UniProt P16473)
[5] = target: wild type human TSHR (thyrotropin receptor) expressed on CHO cells (human) (UniProt P16473); remark: listed apart in the source
[6] = target: TSHR with Tyr185 mutated to Alanine expressed on CHO cells (human) (UniProt P16473)
[7] = target: wild type human TSHR (thyrotropin receptor) expressed on CHO cells (human) (UniProt P16473); remark: listed apart in the source
[8] = target: TSHR with Thr257 mutated to Alanine expressed on CHO cells (human) (UniProt P16473)
[9] = target: wild type human TSHR (thyrotropin receptor) expressed on CHO cells (human) (UniProt P16473); remark: listed apart in the source
[10] = target: TSHR with Arg274 mutated to Alanine expressed on CHO cells (human) (UniProt P16473)
[11] = target: wild type human TSHR (thyrotropin receptor) expressed on CHO cells (human) (UniProt P16473); remark: listed apart in the source
[12] = target: TSHR with Glu107 mutated to Alanine expressed on CHO cells (human) (UniProt P16473)
[13] = target: TSHR with Asp43 mutated to Alanine expressed on CHO cells (human) (UniProt P16473)
[14] = target: wild type human TSHR (thyrotropin receptor) expressed on CHO cells (human) (UniProt P16473); remark: listed apart in the source
[15] = target: TSHR with Phe130 mutated to Alanine expressed on CHO cells (human) (UniProt P16473)
[16] = target: wild type human TSHR (thyrotropin receptor) expressed on CHO cells (human) (UniProt P16473); remark: listed apart in the source
[17] = target: TSHR with Glu251 mutated to Alanine expressed on CHO cells (human) (UniProt P16473)
[18] = target: wild type human TSHR (thyrotropin receptor) expressed on CHO cells (human) (UniProt P16473); remark: listed apart in the source
[19] = target: TSHR with Asp203 mutated to Alanine expressed on CHO cells (human) (UniProt P16473)
[20] = target: wild type human TSHR (thyrotropin receptor) expressed on CHO cells (human) (UniProt P16473); remark: listed apart in the source
[21] = target: TSHR with Glu61 mutated to Alanine expressed on CHO cells (human) (UniProt P16473)
[22] = target: wild type human TSHR (thyrotropin receptor) expressed on CHO cells (human) (UniProt P16473); remark: listed apart in the source
[23] = target: TSHR with Lys250 mutated to Alanine expressed on CHO cells (human) (UniProt P16473)
[24] = target: wild type human TSHR (thyrotropin receptor) expressed on CHO cells (human) (UniProt P16473); remark: listed apart in the source
[25] = target: TSHR with Glu178 mutated to Alanine expressed on CHO cells (human) (UniProt P16473)
[26] = target: wild type human TSHR (thyrotropin receptor) expressed on CHO cells (human) (UniProt P16473); remark: listed apart in the source
[27] = target: TSHR with Tyr206 mutated to Alanine expressed on CHO cells (human) (UniProt P16473)
[28] = target: wild type human TSHR (thyrotropin receptor) expressed on CHO cells (human) (UniProt P16473); remark: listed apart in the source
[29] = target: TSHR with Asp232 mutated to Alanine expressed on CHO cells (human) (UniProt P16473)
[30] = target: wild type human TSHR (thyrotropin receptor) expressed on CHO cells (human) (UniProt P16473); remark: listed apart in the source

Substance: native porcine TSH (from UniProt P01219 25-120; P01224 21-132) (ligand)
- cyclic AMP; Exp 1; TSH 3 ng/mL [1]: 48.5 pmol/mL
- cyclic AMP; Exp 2; TSH 3 ng/mL [1]: 34.3 pmol/mL
- cyclic AMP; Exp 2; native porcine TSH 0.3 ng/mL only [1]: 40.2 pmol/mL
- cyclic AMP; Exp 3; TSH 3 ng/mL [1]: 51.3 pmol/mL
- cyclic AMP; Exp 3; native porcine TSH 0.3 ng/mL only [1]: 35.7 pmol/mL
- cyclic AMP; Exp 4; TSH 0.3 ng/mL [1]: 46.6 pmol/mL
- cyclic AMP; Exp 5; TSH 0.3 ng/mL [1]: 17.3 pmol/mL

Substance: porcine TSH (pTSH) (from UniProt P01219 25-120; P01224 21-132) (ligand)
- Cyclic AMP produced; TSH only (fmol/cell well) [2]: 18000
- Mutated/wild type (%); TSH only [2]: 126%
- Cyclic AMP produced; TSH only (fmol/cell well) [3]: 14200
- Cyclic AMP produced; TSH only (fmol/cell well) [4]: 9500
- Mutated/wild type (%); TSH only [4]: 67%
- Cyclic AMP produced; TSH only (fmol/cell well) [5]: 14200
- Cyclic AMP produced; TSH only (fmol/cell well) [6]: 8300
- Mutated/wild type (%); TSH only [6]: 66%
- Cyclic AMP produced; TSH only (fmol/cell well) [7]: 12600
- Cyclic AMP produced; TSH only (fmol/cell well) [8]: 18600
- Mutated/wild type (%); TSH only [8]: 110%
- Cyclic AMP produced; TSH only (fmol/cell well) [9]: 16900
- Cyclic AMP produced; TSH only (fmol/cell well) [10]: 11400
- Mutated/wild type (%); TSH only [10]: 54%
- Cyclic AMP produced; TSH only (fmol/cell well) [11]: 21300
- Cyclic AMP produced; Experiment 1; TSH only (fmol/cell well) [12]: 13400
- Cyclic AMP produced; Experiment 2; TSH only (fmol/cell well) [12]: 19400
- Mutated/wild type (%); Experiment 1; TSH only [12]: 91%
- Mutated/wild type (%); Experiment 2; TSH only [12]: 110%
- Cyclic AMP produced; TSH only (fmol/cell well) [13]: 11700
- Mutated/wild type (%); TSH only [13]: 84%
- Cyclic AMP produced; Experiment 1; TSH only (fmol/cell well) [14]: 14800
- Cyclic AMP produced; Experiment 2; TSH only (fmol/cell well) [14]: 17600
- Cyclic AMP produced; TSH only (fmol/cell well) [14]: 13900
- Cyclic AMP produced; TSH only (fmol/cell well) [15]: 16400
- Mutated/wild type (%); TSH only [15]: 103%
- Cyclic AMP produced; TSH only (fmol/cell well) [16]: 15900
- Cyclic AMP produced; TSH only (fmol/cell well) [17]: 17500
- Mutated/wild type (%); TSH only [17]: 95%
- Cyclic AMP produced; TSH only (fmol/cell well) [18]: 18400
- Cyclic AMP produced; TSH only (fmol/cell well) [19]: 12600
- Mutated/wild type (%); TSH only [19]: 107%
- Cyclic AMP produced; TSH only (fmol/cell well) [20]: 11800
- Cyclic AMP produced; TSH only (fmol/cell well) [21]: 15400
- Mutated/wild type (%); TSH only [21]: 120%
- Cyclic AMP produced; TSH only (fmol/cell well) [22]: 12800
- Cyclic AMP produced; TSH only (fmol/cell well) [23]: 10900
- Mutated/wild type (%); TSH only [23]: 82%
- Cyclic AMP produced; TSH only (fmol/cell well) [24]: 13300
- Cyclic AMP produced; TSH only (fmol/cell well) [25]: 7670
- Mutated/wild type (%); TSH only [25]: 86%
- Cyclic AMP produced; TSH only (fmol/cell well) [26]: 8900
- Cyclic AMP produced; TSH only (fmol/cell well) [27]: 18400
- Mutated/wild type (%); TSH only [27]: 120%
- Cyclic AMP produced; TSH only (fmol/cell well) [28]: 15400
- Cyclic AMP produced; TSH only (fmol/cell well) [29]: 14900
- Mutated/wild type (%); TSH only [29]: 95%
- Cyclic AMP produced; TSH only (fmol/cell well) [30]: 15700
